Values quoted from earlier work, collected in article PMC10112232, “Comparison of Toxicities among Different Bumped Kinase Inhibitor Analogs for Treatment of Cryptosporidiosis” (Antimicrobial Agents and Chemotherapy, 2023).

Settings: cited from earlier work

CCOc1ccc2cc(-c3nn(C(C)(C)CCO)c(N)c3C(N)=O)ccc2c1 [BKI-1770]
Solubility at pH 2 (pH 2): 75 μM | Solubility at pH 6.5 (pH 6.5): 60.2 μM
